The text below walks through data of patent US20220088102A1, “CROTON LECHLERI COMPOSITIONS AND THEIR USE IN THE TREATMENT OF CYSTIC FIBROSIS” (priority 2020, published 2022).

A short description of data set [1]: In vitro Permeation Test (IVPT), Franz diffusion cell, Strat-M membranes.
Data set [2] can be described thus: Log P analysis (partition coefficient, water and n-Octanol).
Where [3] appears, read: component of AB-101, 100%, Batch 0.
Where [4] appears, read: component of AB-101, 100%, Batch 1.
Setting [5] is: component of AB-101, 100%, Batch 2.
Setting [6] is: component of AB-101, 100%, Batch X.
[7] abbreviates: component of AB-101 Lyophilized & Resuspended, Batch 0.
The mark [8] stands for this setting: component of AB-101 Lyophilized & Resuspended, Batch 1.
[9] abbreviates: component of AB-101 Lyophilized & Resuspended, Batch 2.
Where [10] appears, read: component of AB-101 Lyophilized & Resuspended, Batch X.

Usually LogP stands for the decadic logarithm of the partition coefficient of the neutral form, usually between octanol and water. A high value points to a more lipophilic compound. Consider catechin, for which the “Flux (J)” value in data set [1] (component permeating from AB-101 100% Lot 1) is 8.82 ug/cm^2/hr; in data set [1] (component permeating from AB-101 100% Lot X), 1.53 ug/cm^2/hr. The lipophilicity (LogP) is on record as 0.27 in data set [2] (setting [3]); 0.29 in data set [2] (setting [4]); 0.59 in data set [2] (setting [5]); −0.14 in data set [2] (setting [6]); 0.39 in data set [2] (setting [7]); 0.23 in data set [2] (setting [8]). Further, the LogP in data set [2] (setting [9]) is 0.07; in data set [2] (setting [10]), −0.13.

As for epicatechin, the log partition coefficient (LogP) in data set [2] (setting [3]) is given as −0.09; in data set [2] (setting [4]), −0.02; in data set [2] (setting [5]), 0.13; in data set [2] (setting [6]), 0.07; in data set [2] (setting [7]) it was 0.02; in data set [2] (setting [8]) it was 0.02. The figures for the LogP in data set [2] (setting [9]) and in data set [2] (setting [10]) were −0.17 and 0.09, respectively.
